This passage reports IC50 and IC80 results from EP0933350A1, “Tricyclic retinoids, methods for their production and use” (LIGAND PHARMACEUTICALS INCORPORATED, priority 1994, dated 1996).

What all share (assay type): cell-based
One experiment has as its system ME 180 cell line. Nature of the experiment: incorporation of 3H-thymidine (antiproliferative). As to conditions: Homo sapiens, 96 hours, radiolabeled thymidine incorporation, read-out: TdR IC50.
The test system of a further experiment is TPA induction of ODC. The experiment can be described thus: ornithine decarboxylase (ODC) assay: inhibition of TPA induction of ODC. As to conditions: concentration required to inhibit the TPA induction of ODC by 80 percent.
Another experiment deals with RPMI 8226 cell line. Nature of the experiment: incorporation of 3H-thymidine (antiproliferative). As to conditions: Homo sapiens, 96 hours, radiolabeled thymidine incorporation, read-out: TdR IC50.

Take `CC1=C(/C=C/C(C)=C/C=C/C(C)=C/C(=O)O)C(C)(C)CCC1` [ATRA, all-trans retinoic acid, reference compound]: the IC50 in the experiment on ME 180 cell line turned out to be 253 nM; with RPMI 8226 cell line, 102 nM. The compound also had an IC80 in the experiment with TPA induction of ODC of 1.4 nM.

Usually IC50 stands for the midpoint of a concentration-inhibition curve. For orientation: IC80 means the concentration needed for an effect of 80%. Read a low IC80 as an effect from little substance.
